{"source": "patent US7183068B2", "about": "“Methods of manufacturing glucose measuring assemblies with hydrogels” (Animas Technologies, LLC, priority 1999, dated 2007)", "assay": "Adsorption of Nipastat paraben components from hydrogel by gel retaining layer, HPLC of gel extract", "format": "physicochemical", "details": "Gel + GRL, 9 Days at 4° C., individual samples 1-5", "procedure": "Nipastat®-containing hydrogels were formulated with the appropriate buffer salts under standard conditions, from which samples were taken for analysis. […] The hydrogels were cut using a ¾ inch punch to generate the sample disks to assay. Each disk was added to 5 mL of acetonitrile/water (30% ACN, v/v) and the Nipastat® biocide was extracted for 1 hour while shaking on an orbital shaker at 100 rpm. The extract was then filtered through a 0.2 μm membrane prior to HPLC separation and UV detection at 254 nm.\nReverse phase HPLC chromatography was performed using a Waters 3.9 mm×15 cm Nova-Pak C-18 column (Milford, Mass.) operating at a flow rate of between about 1.0 to 2.0 mL/min. at 35° C. The eluent was monitored by UV at 254 nm using a Shimadzu SPD-10AU UV-Visible spectrometer (Kyoto, Japan). Samples 10 μL in volume were injected into the column equilibrated in 30% ACN in water, and the following 20-minute gradient program was performed: • 1. Initial time of injection: 30% ACN/70% water at a flow rate of 1 mL/min • 2. Linear Gradient from 30% ACN to 80% ACN for 9.0 minutes (1 mL/min) • 3. Linear Gradient from 80% ACN to 100% ACN for 0.5 minutes (1 mL/min) • 4. 100% ACN for 4.5 minutes (1 mL/min) • 5. Linear Gradient from 100% ACN to 30% ACN for 0.5 minutes at a flow rate of 2 mL/min • 6.30% ACN for 5.5 minutes at a flow rate of 1 mL/min […]", "data": [{"smiles": "CCCOC(=O)c1ccc(O)cc1", "note": "[Propyl, p-hydroxybenzoic acid propyl ester]", "values": [{"measurement": "HPLC peak intensity of paraben extracted from hydrogel", "result": 12662}]}]}
